Patent US5171750A (priority 1991, dated 1992)

Amino acid sequences for entries named in this document (tags omitted). A change or cut given only in a name is not applied to a line headed by its entry. Residues count along the entry.
UniProt P06276, 29-602: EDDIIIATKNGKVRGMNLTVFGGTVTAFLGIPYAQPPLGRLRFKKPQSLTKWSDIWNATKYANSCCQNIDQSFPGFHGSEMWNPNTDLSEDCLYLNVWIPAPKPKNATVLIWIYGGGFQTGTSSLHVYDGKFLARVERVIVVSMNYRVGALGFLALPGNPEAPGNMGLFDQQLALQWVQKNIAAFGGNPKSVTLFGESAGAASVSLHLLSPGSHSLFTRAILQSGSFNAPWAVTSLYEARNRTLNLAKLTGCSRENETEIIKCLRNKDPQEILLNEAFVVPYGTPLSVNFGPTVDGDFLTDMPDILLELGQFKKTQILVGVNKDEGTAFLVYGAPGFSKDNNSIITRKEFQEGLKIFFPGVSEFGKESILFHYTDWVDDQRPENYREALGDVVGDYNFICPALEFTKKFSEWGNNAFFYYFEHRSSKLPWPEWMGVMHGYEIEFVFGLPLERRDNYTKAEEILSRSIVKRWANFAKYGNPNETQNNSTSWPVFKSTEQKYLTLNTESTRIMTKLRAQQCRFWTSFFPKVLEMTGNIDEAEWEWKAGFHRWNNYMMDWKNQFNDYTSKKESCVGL
UniProt P22303: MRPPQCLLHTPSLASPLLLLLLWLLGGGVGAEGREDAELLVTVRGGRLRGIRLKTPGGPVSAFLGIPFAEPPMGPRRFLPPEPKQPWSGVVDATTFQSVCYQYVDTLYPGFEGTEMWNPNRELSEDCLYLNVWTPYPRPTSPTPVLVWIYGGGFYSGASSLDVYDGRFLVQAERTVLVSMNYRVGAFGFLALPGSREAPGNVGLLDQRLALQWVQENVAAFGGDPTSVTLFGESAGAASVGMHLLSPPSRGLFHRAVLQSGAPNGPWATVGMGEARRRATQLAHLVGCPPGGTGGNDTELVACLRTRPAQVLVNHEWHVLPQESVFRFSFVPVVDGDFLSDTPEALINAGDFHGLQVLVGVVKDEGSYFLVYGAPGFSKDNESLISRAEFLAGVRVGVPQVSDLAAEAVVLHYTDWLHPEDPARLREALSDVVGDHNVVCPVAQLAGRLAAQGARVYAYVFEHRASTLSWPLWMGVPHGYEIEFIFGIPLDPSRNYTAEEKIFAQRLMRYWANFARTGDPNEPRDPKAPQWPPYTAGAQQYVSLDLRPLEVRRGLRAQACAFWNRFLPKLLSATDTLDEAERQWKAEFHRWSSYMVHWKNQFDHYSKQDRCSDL

Columns and labels:
plasma BChE = plasma BChE (Homo sapiens, UniProt P06276); experiment: biochemical
human erythrocyte AChE = human erythrocyte AChE (Homo sapiens, UniProt P22303); assay type: biochemical; conditions: pH 8

SMILES	IC50 (plasma BChE)	IC50 (human erythrocyte AChE)
CNC(=O)Oc1ccc2c(c1)[C@]1(C)CCN[C@@H]1N2C [(2) (-)-N(1)-Norphysostigmine, (-)-(Nl)-norphysostigmine, reference compound]	2 ± 1 nM	
CC(C)c1ccc(NC(=O)Oc2ccc3c(c2)[C@]2(C)CCN(C)[C@@H]2N3C)cc1 [Ex. 9, (-)-4'isopropylcarbamoyleseroline]	51.3 ± 0.9 nM	758 ± 21.2 nM
